Measured values from PubChem BioAssay AID2553 (Johns Hopkins Ion Channel Center, 2010).
The entries are a selection whose mix differs from that of the whole data set. Calls of active or inactive are those of the source.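 Rule for the calls: active = B-score under library mean minus 3 SD, initial fluorescence not abnormally high, positive integrated signal ratio; inactive = the rest.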

By UniProt entry, the sequences of proteins in these tests, tags left out.
UniProt Q61143, whole entry: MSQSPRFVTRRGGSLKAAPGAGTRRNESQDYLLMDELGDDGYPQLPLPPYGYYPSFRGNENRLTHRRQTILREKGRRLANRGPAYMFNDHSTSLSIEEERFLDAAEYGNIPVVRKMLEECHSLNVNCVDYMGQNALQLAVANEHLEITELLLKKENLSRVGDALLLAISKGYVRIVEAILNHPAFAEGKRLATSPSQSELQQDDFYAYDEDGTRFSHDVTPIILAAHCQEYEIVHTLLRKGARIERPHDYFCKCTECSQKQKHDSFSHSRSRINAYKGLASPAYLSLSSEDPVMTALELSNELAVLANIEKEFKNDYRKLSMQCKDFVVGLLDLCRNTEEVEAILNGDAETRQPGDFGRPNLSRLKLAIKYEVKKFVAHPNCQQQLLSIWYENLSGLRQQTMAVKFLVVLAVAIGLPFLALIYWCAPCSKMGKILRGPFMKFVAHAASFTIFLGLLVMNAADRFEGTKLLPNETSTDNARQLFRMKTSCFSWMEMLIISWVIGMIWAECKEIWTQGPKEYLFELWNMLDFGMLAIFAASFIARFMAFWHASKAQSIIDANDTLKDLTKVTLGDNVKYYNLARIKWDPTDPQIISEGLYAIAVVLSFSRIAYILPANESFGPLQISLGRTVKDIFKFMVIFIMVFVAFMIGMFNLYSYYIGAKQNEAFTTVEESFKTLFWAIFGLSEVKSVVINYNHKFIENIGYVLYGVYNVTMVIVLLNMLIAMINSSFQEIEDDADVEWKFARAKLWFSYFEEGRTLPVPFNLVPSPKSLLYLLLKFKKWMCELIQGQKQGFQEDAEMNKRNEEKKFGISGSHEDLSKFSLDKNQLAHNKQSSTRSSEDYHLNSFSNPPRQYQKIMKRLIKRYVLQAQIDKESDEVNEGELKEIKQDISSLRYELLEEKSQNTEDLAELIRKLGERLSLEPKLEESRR

target: Short transient receptor potential channel 6 (Mus musculus) (UniProt Q61143); test: mouse TRPC6 channel inhibitors, primary screen, cell-based, HEK293, membrane potential dye (AID 2553); details: ACh-evoked depolarization, at 10 µM; active compounds read low;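 for B-score: B-score derived from integrated fluorescence ratio over the kinetic read; more negative B-score means stronger inhibition of depolarization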

| SMILES | outcome | B-score |
| --- | --- | --- |
| CCOC(=O)Nc1ccc([As](=O)(O)O)c(O)c1 | inactive |  |
| CCCCOc1ccc(C(=O)NCC2(N3CCCCC3)CCCCC2)cc1OC | inactive |  |
| Cc1cc(SC(NC(=O)c2ccccc2)C(Cl)(Cl)Cl)nc(C(C)C)n1 (centres undefined) | inactive |  |
| CCOC(=O)Nc1cccc([As](=O)(O)O)c1 | inactive |  |
| CP(=S)(Nn1cnnc1)Oc1ccccc1 (centres undefined) | inactive |  |
| CP(=O)(Nc1ccccc1Br)Oc1ccccc1 (centres undefined) | inactive |  |
| O=[N+]([O-])c1ccc(Nc2ccc(Oc3ccc([N+](=O)[O-])cc3[N+](=O)[O-])cc2)c([N+](=O)[O-])c1 | inactive |  |
| O=P(Nc1ccccn1)(c1cccc2ccccc12)c1cccc2ccccc12 | inactive |  |
| Cc1cc(SC(NC=O)C(Cl)(Cl)Cl)ncn1 (centres undefined) | inactive |  |
| COc1ccccc1OP(C)(=O)Nc1ccccc1 (centres undefined) | inactive |  |
| COP1(=S)c2c(C)nn(CCC#N)c2N=C(c2ccc(F)cc2)N1C (centres undefined) | inactive |  |
| Cc1cccc(C)c1OP(C)(=O)Nc1ccc(SC(F)(F)F)cc1 (centres undefined) | inactive |  |
| CP(=O)(Nc1ccc(SC(F)(F)F)cc1)Oc1ccc(Cl)cc1 (centres undefined) | inactive |  |
| CP(=O)(Oc1ccccc1)OC(c1ccccc1)C(F)(F)F (centres undefined) | inactive |  |
| O=C(COc1ccccc1)OC1CN2CCC1CC2 (centres undefined) | inactive |  |
| CP(=O)(NC(=O)Nc1ccccc1)Oc1ccccc1 (centres undefined) | inactive |  |
| CCc1ccc(OP(C)(=O)N2CCN(c3ccc([N+](=O)[O-])cc3)CC2)cc1 (centres undefined) | inactive |  |
| Cc1cc(C)cc(OP(C)(=O)Nc2ccc(SC(F)(F)F)cc2)c1 (centres undefined) | inactive |  |
| O=C(Nc1ccncc1[N+](=O)[O-])c1ccc([N+](=O)[O-])cc1[N+](=O)[O-] | inactive |  |
| CCOC(=O)c1ccc(NC(=O)C(C)(CCl)SC)cc1 (centres undefined) | inactive |  |
| CCOC(=O)c1ccc(NP(C)(=O)Oc2ccc(OC)cc2)cc1 (centres undefined) | inactive |  |
| O=[N+]([O-])c1cc([N+](=O)[O-])c(O)c([N+](=O)[O-])c1.c1ccc(Oc2ccncc2)cc1 | inactive |  |
| CCOP(C)(=S)SCC(=O)NC(C)C(=O)O (centres undefined) | inactive |  |

| SMILES | outcome | B-score |
| --- | --- | --- |
| O=C(OC1CN2CCC1CC2)c1cccc([N+](=O)[O-])c1 (centres undefined) | inactive |  |
| CP(=O)(Nc1ccccn1)Oc1ccc(Cl)cc1 (centres undefined) | inactive |  |
| CCC(C)N(CC(C)C)C(=S)SC(NC(C)=O)C(Cl)(Cl)Cl (centres undefined) | inactive |  |
| CCN(CC)CCCOC(=O)C(O)(c1ccccc1)c1ccccc1 |  | active: -11.1 |
| Cc1cc(=O)[nH]c(N[N+](=O)[O-])n1 | inactive |  |
| Cc1c2c(nc3ccccc13)SC(C(Cl)Cl)C2 (centres undefined) | inactive |  |
| COc1ccc2nc(NP(=O)(c3ccccc3)c3ccccc3)sc2c1 | inactive |  |
| COc1cc(I)ccc1[As](=O)(O)O | inactive |  |
| COc1ccc(N/C(=N/P(=O)(N2CCOCC2)N2CCOCC2)N2CCOCC2)cc1 | inactive |  |
| O=[As](O)(c1ccc(O)cc1)c1ccccc1O | inactive |  |
| C[As](=O)(O)c1cccc(C(=O)O)c1 | inactive |  |
| O=[N+]([O-])c1cc([N+](=O)[O-])c(Nc2cccnc2)c([N+](=O)[O-])c1 | inactive |  |
| O=[N+]([O-])c1ccc2c(c1)C=Nc1ccccc1O2 | inactive |  |
| Cc1ccc2nc3c(c(C)c2c1)CC(C(Cl)Cl)S3 (centres undefined) | inactive |  |
| Cc1ccc(OP(=O)(Nc2ccc([N+](=O)[O-])cn2)Oc2ccc(C)cc2)cc1 | inactive |  |
| CC(C)(C)c1ccc(OP(C)(=O)Nc2ccc(SC(F)(F)F)cc2)cc1 (centres undefined) | inactive |  |
| Cc1cccc(C)c1OP(C)(N)=O (centres undefined) | inactive |  |
| COc1ccccc1OP(C)(=O)Nc1ccc(C)cc1 (centres undefined) | inactive |  |
| CC(C)c1ccc(OP(=O)(Nc2ccccn2)Oc2ccccc2F)cc1 (centres undefined) | inactive |  |
| Cc1ccc(NP(C)(=O)Oc2ccccc2)c(C)c1 (centres undefined) | inactive |  |
| CCOC(=O)c1ccc(NP(C)(=O)Oc2ccccc2)cc1 (centres undefined) | inactive |  |
| ClCCSc1nnc(-c2cccnc2)o1 | inactive |  |
| Cc1cc(C)cc(OP(C)(N)=O)c1 (centres undefined) | inactive |  |

| SMILES | outcome | B-score |
| --- | --- | --- |
| COc1ccccc1OP(C)(=O)Nc1cc(Cl)ccc1C (centres undefined) | inactive |  |
| CC(C)NC(=O)NP(=O)(Oc1ccccc1)Oc1ccccc1 | inactive |  |
| CCN(CC)C(=S)SC(NC=O)C(Cl)(Cl)Cl (centres undefined) | inactive |  |
| COc1ccc(OP(C)(=O)Nc2cccc(F)c2)cc1 (centres undefined) | inactive |  |
| O=[N+]([O-])c1cc([N+](=O)[O-])c(-c2ccn[nH]2)s1 | inactive |  |
| CS(=O)(=O)c1cc([N+](=O)[O-])c2no[n+]([O-])c2c1 | inactive |  |
| CCOP1(=S)c2c(C)nn(CCC#N)c2N=C(c2ccccc2F)N1C (centres undefined) | inactive |  |
| O=C(O)c1cccc(Nc2c([N+](=O)[O-])cc([N+](=O)[O-])cc2[N+](=O)[O-])c1 | inactive |  |
| O=P(Nc1nccs1)(Oc1ccccc1)Oc1ccccc1 | inactive |  |
| O=P(Nc1nccs1)(c1ccccc1)c1nc2ccccc2s1 (centres undefined) | inactive |  |
| Nc1ccccc1[As](=O)(O)c1ccccc1 | inactive |  |
| O=C(O)COc1ccc([As](=O)(O)O)cc1[N+](=O)[O-] | inactive |  |
| NC(=O)Nc1ccc([As](=O)(O)O)cc1 | inactive |  |
| O=[N+]([O-])c1ccc2c(c1)nnn2O | inactive |  |
| CN(C)C(=O)c1cc([N+](=O)[O-])cc2c1-c1c(cc([N+](=O)[O-])cc1[N+](=O)[O-])C2=O | inactive |  |
| CC1=NCCc2c1[nH]c1ccccc21.O=[N+]([O-])c1cc([N+](=O)[O-])c(O)c([N+](=O)[O-])c1 | inactive |  |
| CN(C(=O)Cc1ccc(Cl)c(Cl)c1)[C@H]1CC[C@@]2(CCCO2)C[C@@H]1N1CCCC1 | inactive |  |
| N#CCCN(C(=O)COC(=O)C(O)(c1ccccc1)c1ccccc1)c1ccc(F)cc1 | inactive |  |
| CN(C(=O)Cc1ccccc1)[C@@H]1CC[C@]2(CCCO2)C[C@H]1N1CCCC1 | inactive |  |
| CCOP1(=S)c2c(C)nn(CCC#N)c2N=C(c2ccc(F)cc2)N1C (centres undefined) | inactive |  |
| O=[As](O)(O)c1cccnc1 | inactive |  |
| COc1cc(C(=O)NCC2(N3CCOCC3)CCCCC2)cc(Cl)c1OC(C)C | inactive |  |
| CS(=O)(=O)c1ccc(Cl)c(NC(=O)COC(=O)C(O)(c2ccccc2)c2ccccc2)c1 | inactive |  |

| SMILES | outcome | B-score |
| --- | --- | --- |
| COc1ccccc1OP(C)(=O)Nc1cccc(Br)c1 (centres undefined) | inactive |  |
| O=C(OC1CN2CCC1CC2)c1ccc(Cl)cc1 (centres undefined) | inactive |  |
| CCOC(=O)c1ccc(NP(C)(=O)Oc2cc(C)cc(C)c2)cc1 (centres undefined) | inactive |  |
| Cc1cccc(OCC(=O)OC2CN3CCC2CC3)c1 (centres undefined) | inactive |  |
| O=[As](O)(c1cccc(O)c1)c1cccc(O)c1 | inactive |  |
| Cc1cc(C)cc(OP(C)(=O)Nc2ccc(C)cc2C)c1 (centres undefined) | inactive |  |
| Cc1ccc(C)c(NP(C)(=O)Oc2ccccc2)c1 (centres undefined) | inactive |  |
| CCCOP(=S)(Nc1nc(N)cc(=O)[nH]1)OCCC | inactive |  |
| Cc1cc(C)cc(OP(C)(=O)Nc2ccccn2)c1 (centres undefined) | inactive |  |
| CP(=O)(Nc1cccc(Br)c1)Oc1ccccc1 (centres undefined) | inactive |  |
| Nc1cccc2c([As](=O)(O)O)cccc12 | inactive |  |
| Cc1ccc(NCCc2c([N+](=O)[O-])cc([N+](=O)[O-])cc2[N+](=O)[O-])cc1 | inactive |  |
| CCOP(=O)(Nc1cccc2ccccc12)OCC | inactive |  |
| CCOP(=O)(Nc1ccc(C)cn1)OCC | inactive |  |
| CN(CCCl)Cc1cc(Cl)c(NC2=NCCN2)c(Cl)c1 | inactive |  |
| O=P1(Nc2ccccn2)COc2ccccc2OC1 | inactive |  |
| O=[N+]([O-])c1cc([N+](=O)[O-])c(-n2nnc3ccccc32)c([N+](=O)[O-])c1 | inactive |  |
| CCOP(=O)(NC(=NC(C)c1ccccc1)NC(C)c1ccccc1)OCC (centres undefined) | inactive |  |
| Clc1n[nH]nc1-c1nn[nH][15n]1 | inactive |  |
| CC(C)(C)C(=O)NC(Sc1ncccn1)C(Cl)(Cl)Cl (centres undefined) | inactive |  |
| COc1ccccc1CNC(=O)COC(=O)C(O)(c1ccccc1)c1ccccc1 | inactive |  |
| O=[N+]([O-])c1cc([N+](=O)[O-])c(-c2cnn(-c3ccccc3)c2)c([N+](=O)[O-])c1 | inactive |  |
| O=[As](O)(c1ccccc1Br)c1ccccc1Br | inactive |  |

| SMILES | outcome | B-score |
| --- | --- | --- |
| CC1(CBr)Cn2c(nc3ccccc3c2=O)S1 (centres undefined) | inactive |  |
| CC(C)/C=N\N=C(\N)N[N+](=O)[O-] | inactive |  |
| CN(C(=O)Cc1ccc(Cl)c(Cl)c1)[C@@H]1CCCC[C@H]1N1CCCC1 | inactive |  |
| COc1cc(C2NCCC3(OCCO3)C2(C)C)cc(OC)c1OC.O=[N+]([O-])c1cc([N+](=O)[O-])c(O)c([N+](=O)[O-])c1 (centres undefined) | inactive |  |
| Cc1nn(-c2ccccc2)c2c1P(=O)(N1CCOCC1)N(C)C(c1ccccc1)=N2 (centres undefined) | inactive |  |
| CC1CCC(C(C)C)C(OP(=O)(Nc2ccccn2)c2ccccc2)C1 (centres undefined) | inactive |  |
| Cc1ccc(C(=O)OC2CN3CCC2CC3)cc1 (centres undefined) | inactive |  |
| O=C(/C=C/c1ccccc1)OC1CN2CCC1CC2 (centres undefined) | inactive |  |
| CN(C)C1(CNC(=O)c2ccc(S(C)(=O)=O)cc2)CCCCC1 | inactive |  |
| O=[N+]([O-])c1cc([N+](=O)[O-])c(Nc2nnnn2CCO)c([N+](=O)[O-])c1 | inactive |  |
| CCOC(=O)C(CC)C1=NC(C)(C)Cc2ccccc21.O=[N+]([O-])c1cc([N+](=O)[O-])c(O)c([N+](=O)[O-])c1 (centres undefined) | inactive |  |
| COc1ccccc1OP(C)(=O)Nc1c(C)cccc1C (centres undefined) | inactive |  |
| CN1CCCCC1COC(=O)C1(O)c2ccccc2CCc2ccccc21 (centres undefined) | inactive |  |
| O=P1(Nc2ncccn2)COc2ccccc2OC1 | inactive |  |
| O=[As](O)(c1cccs1)c1cccs1 | inactive |  |
| Cc1ccc(OCC(=O)OC2CN3CCC2CC3)cc1 (centres undefined) | inactive |  |
| O=P1(Nc2ccc(Br)cn2)COc2ccccc2OC1 | inactive |  |
| CCCOc1ccc(NP(C)(=O)Oc2ccc(Cl)cc2)cc1 (centres undefined) | inactive |  |
| Nc1cccc([As](=O)(O)c2ccccc2)c1 | inactive |  |
| CP(=O)(Nc1ccc(SC(F)(F)F)cc1)Oc1ccccc1 (centres undefined) | inactive |  |
| COc1ccc(OP(C)(=O)Nc2cccc(Br)c2)cc1 (centres undefined) | inactive |  |
| O=P(Nc1ccccn1)(c1ccc(Br)cc1)c1ccc(Br)cc1 | inactive |  |
